Binding of CDR-mutated scFvs to a peptide of the spike HR2 region

From the AlphaSeq antibody data of Engelhart et al. 2022 (doi:10.1038/s41597-022-01779-4), copy in the FLAb collection.

Binding partner: SARS-CoV-2 spike HR2 peptide, sequence PDVDLGDISGINAS.

Each scFv is VH, a (GGGGS)3 linker, VL, as in the parent Ab-14, and differs from it in the CDRs of the heavy chain only.
VH: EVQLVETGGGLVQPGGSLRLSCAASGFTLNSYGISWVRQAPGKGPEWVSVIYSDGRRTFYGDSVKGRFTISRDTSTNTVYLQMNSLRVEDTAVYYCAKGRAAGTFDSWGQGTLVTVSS
VL: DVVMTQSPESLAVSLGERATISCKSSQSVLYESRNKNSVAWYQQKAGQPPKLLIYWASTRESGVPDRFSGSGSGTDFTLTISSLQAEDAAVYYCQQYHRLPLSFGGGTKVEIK

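The starting antibody came from a phage panning campaign against this peptide. AAYL49 was designed without a model: most single CDR substitutions and a random sample of double and triple ones. In AlphaSeq, yeast of one mating type display the scFv and yeast of the other type display the target. Pairs that bind mate more often; barcode pairs of the diploids are counted by sequencing. Read counts were normalised to the haploid input and turned into Kd by a linear fit to BCL2-family pairs of known affinity, for each replicate. Each pool was mated in three replicate cultures.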

The parent's heavy chain CDRs are GFTLNSYGIS, VIYSDGRRTFYGDSVK, GRAAGTFDS; each variant's own CDRs replace them letter for letter. Values are apparent Kd, the geometric mean of the replicates that gave a signal; lower means stronger binding. An entry "nd" has no value in the source: the pair was not observed among the diploids in any replicate. This suggests poor binding but is not conclusive.

Kd,seen in,signal with controls,CDR-H1,CDR-H2,CDR-H3
nd,0/3,0/9,GFTLCSYGIS,VIYSDGRRTFYGDSPK,GRAAGCFDS
5.5 nM,3/3,0/9,GFTLNSYGIS,VIYSDGQRTFYGDTVK,GRMAGTFDS
120 µM,1/3,2/9,GFTLNSYGIS,VIYSDGRRTFYGRSVF,GRAAYTFDS
74 nM,3/3,1/9,GFTLNSYGID,VIYSDGRRTFYGDSVK,GWARGTFDS
nd,0/3,0/9,GFTLNSYGIS,VFYSDGRRTFYGDKVK,GRAAFTFDS
180 µM,1/3,4/9,GETLNSYGIS,VIYSDGLRTFYGDSVK,GRAAGTFES
nd,0/3,0/9,GFTLGSLQIS,VIYSDGRRTFYGDSVK,GRAAGTFDS
1.2 µM,2/3,0/9,GFNLNSYGIS,VIYSRGRRPFYGDSVK,GRAAGTFDS
7.3 µM,1/3,1/9,GFTLNSYGFS,VIYSDGRRTFYGDSVA,GRAAGTFDS
200 nM,2/3,0/9,GFTLNSYGIS,VIYSDGRRTFYGMHVK,GSAAGTFDS
260 nM,3/3,0/9,GFTLNSYGIS,VIYSDGARTQYGDSVK,GAAAGTFDS
nd,0/3,0/9,KFTLNSYGIS,VIYSDGRRTFYGDSVK,ERAAGTFDS
nd,0/3,1/9,GFTLNSYGIS,VIYSDGRRQRYGDSGK,GRAAGTFDS
130 µM,1/3,0/9,GFTLNSYGIS,VIYSDPRRTFYGDSVI,WRAAGTFDS
nd,0/3,1/9,SFTLNSYGIS,VIPSVGRRTFYGDSVK,GRAAGTFDS
nd,0/3,1/9,GFTLNTYGIS,VIYLDGRRTFYGDSVK,LRAAGTFDS
1.7 µM,1/3,0/9,GFTLNSYGIS,VIVSDGRRTFYGDSVK,GRAIGTFDS
22 µM,3/3,4/9,GFTLNSGGIS,VIYSDGRFTFYGDRVK,GRAAGTFDS
45 µM,1/3,0/9,GFTLNSYGIW,VIASDGRRTFYGDSLK,GRAAGTFDS
45 nM,3/3,0/9,GSTLNSYGIS,VIYSDGRRTFYGDSVK,GQAAGTFDS
nd,0/3,0/9,GFTLNSYGIS,DIYSDGFRTFYGLSVK,GRAAGTFDS
28 nM,3/3,0/9,GFMLNSYGIS,VIYSDGRRTFYGHSVK,GQAAGTFDS
750 nM,2/3,2/9,GFHLNSQGIS,VIYSDGRRTFYGDSVK,GRAAGTFDS
30 µM,1/3,2/9,GFTLISYGIS,VMYSDGRRTFAGDSVK,GRAAGTFDS
nd,0/3,1/9,GFTLRSYFIS,VIYSDGRRTFWGDSVK,GRAAGTFDS
160 nM,3/3,3/9,GNTLNKYGIS,VIYSDGRRTFYGDSVK,GRAAGTHDS
nd,0/3,1/9,GFTLNSYGIS,VIYYDGRRTFYGDSQK,GRAAGTRDS
nd,0/3,0/9,GFTLNSYGIS,VIYSDGRRTFYKLSVK,GIAAGTFDS
9.9 µM,2/3,2/9,GFTLNSYGIS,VIYSDGRNTFHGDFVK,GRAAGTFDS
nd,0/3,1/9,GFTLNSYGNS,VIYSDGRRTFTGDSVK,GRAAGTHDS
nd,0/3,2/9,GFTRNKYGIS,VDYSDGRRTFYGDSVK,GRAAGTFDS
120 µM,3/3,3/9,GFPLNSYGIS,VIYSDGRRTLYTDSVK,GRAAGTFDS
nd,0/3,0/9,GFTLNSYGIS,IIESDGRRTFYGDSVI,GRAAGTFDS
nd,0/3,0/9,GFTLCSYGIS,VIYSDARMTFYGDSVK,GRAAGTFDS
nd,0/3,0/9,GFTLNSYGIS,VIYSDGRHTHYGDSVK,GRAAGKFDS
nd,0/3,0/9,GFTLNSYGIS,VIYSDGENTFYGDSVK,GRAAGPFDS
15 µM,2/3,0/9,GFTLNCYGIS,VIYSDGARTFYGDSVK,GRAAGTFDS
nd,0/3,1/9,GFTAYSYGIS,VIYSDGRRTFYGDSVK,GRAAGTFDS
2.8 µM,1/3,0/9,GFTTNSYNIS,VIYSDGRRTFYGDSVK,DRAAGTFDS
61 nM,3/3,5/9,GFTLNSYGIS,VIYSDGRRTFYGDSVK,ERAAQTFWS
nd,0/3,0/9,GFTENSYGIS,VIYCDGRRTFYGDSLK,GRAAGTFDS
nd,0/3,0/9,GFTLNQYGIS,VIYSDGRRTFYADEVK,GRAAGTFDS
21 µM,1/3,0/9,GFTLNHYGIS,VIYSDGRRTFYGDSVK,GTAWGTFDS
nd,0/3,0/9,GFTLNRYSIS,VIYSDGRRTFYGDSVK,GRAAGTFDH
36 µM,3/3,4/9,GFTLNSYGIS,VIYSDGNRTFYGHSVK,GRAAETFDS
nd,0/3,0/9,GFTLNSYVIS,VIYSDGRRKFYGDSVK,GRAAGTFDS
790 nM,3/3,1/9,GFTLNSYGIS,VIYSDGGRMFYEDSVK,GRAAGTFDS
480 nM,3/3,8/9,GFPLNSYGIS,VIYSDGRRTFYGDSMK,GRANGTFDS
9.8 µM,2/3,1/9,GHTLNSYGIT,VIYSDGRRTFYGDSVK,GRAAGTPDS
2.7 µM,1/3,0/9,MFMLNSYGIS,VIYSDGRRTFYGDSVK,GRAAGTTDS
nd,0/3,0/9,GCTLNSYGIS,VIYRDGFRTFYGDSVK,GRAAGTFDS
nd,0/3,0/9,GFTLNSQGIS,VIYSDGRRTFYGDPVK,GRAAGTFDH
nd,0/3,1/9,GFTLNSYGIS,VIYLDGRRLFYGASVK,GRAAGTFDS
nd,0/3,1/9,GFTLNSYGIY,VIYSDGRRTFYGFSVS,GRAAGTFDS

The first 9 entries again:

{"CDR-H1": "GFTLCSYGIS", "CDR-H2": "VIYSDGRRTFYGDSPK", "CDR-H3": "GRAAGCFDS", "Kd": "nd", "seen in": "0/3", "signal with controls": "0/9"}
{"CDR-H1": "GFTLNSYGIS", "CDR-H2": "VIYSDGQRTFYGDTVK", "CDR-H3": "GRMAGTFDS", "Kd": "5.5 nM", "seen in": "3/3", "signal with controls": "0/9"}
{"CDR-H1": "GFTLNSYGIS", "CDR-H2": "VIYSDGRRTFYGRSVF", "CDR-H3": "GRAAYTFDS", "Kd": "120 µM", "seen in": "1/3", "signal with controls": "2/9"}
{"CDR-H1": "GFTLNSYGID", "CDR-H2": "VIYSDGRRTFYGDSVK", "CDR-H3": "GWARGTFDS", "Kd": "74 nM", "seen in": "3/3", "signal with controls": "1/9"}
{"CDR-H1": "GFTLNSYGIS", "CDR-H2": "VFYSDGRRTFYGDKVK", "CDR-H3": "GRAAFTFDS", "Kd": "nd", "seen in": "0/3", "signal with controls": "0/9"}
{"CDR-H1": "GETLNSYGIS", "CDR-H2": "VIYSDGLRTFYGDSVK", "CDR-H3": "GRAAGTFES", "Kd": "180 µM", "seen in": "1/3", "signal with controls": "4/9"}
{"CDR-H1": "GFTLGSLQIS", "CDR-H2": "VIYSDGRRTFYGDSVK", "CDR-H3": "GRAAGTFDS", "Kd": "nd", "seen in": "0/3", "signal with controls": "0/9"}
{"CDR-H1": "GFNLNSYGIS", "CDR-H2": "VIYSRGRRPFYGDSVK", "CDR-H3": "GRAAGTFDS", "Kd": "1.2 µM", "seen in": "2/3", "signal with controls": "0/9"}
{"CDR-H1": "GFTLNSYGFS", "CDR-H2": "VIYSDGRRTFYGDSVA", "CDR-H3": "GRAAGTFDS", "Kd": "7.3 µM", "seen in": "1/3", "signal with controls": "1/9"}

In this assay the parent's reference entry averaged 4.4 nM; its copy inside this library read 13 µM (one replicate of three). Background: pairings of library AAYL49 with three empty control strains gave a value in 15% of cases (median 11 µM, 5th percentile 680 nM). Values in that range, when seen in few replicates, are hard to tell from nonspecific mating. The control count says in how many pairings with the empty strains this scFv gave a signal.